Results taken from patent US9499466B2, “Diene-based carboxylate anion and salt thereof, and polymerizable or curable composition thereof” (NIPPON SHOKUBAI CO., LTD., priority 2010, dated 2016).

Test: Solubility test (film-forming method)
Method: Each compound was applied on a glass plate and the glass plate was leaned against the wall. Each solvent shown in Table 5 was dropped (5 to 6 drops) on the glass plate with a pasteur pipette. The glass plate was visually observed after the dropped solvent was dried, the surface was optionally rubbed with a spatula, and the solubility (film-forming method) was evaluated according to the criteria shown in Table 4.

Substance | Solubility (film-forming method) THF (THF) | Solubility (film-forming method) Toluene (Toluene) | Solubility (film-forming method) Water (solvent dropped on film on glass plate, Water)
Magnesium methacrylate [Mg(MAA)2, reference compound] | X-Δ |  | 
Zinc methacrylate [Zn(MAA)2, reference compound] |  | X-Δ | X-Δ
